Results: patent publication US7208512B2, “Benzodifuranimidazoline and benzofuranimidazoline derivatives and their use for the treatment of glaucoma” (Alcon, Inc., priority 2001, dated 2007)

Amino acid sequences for entries named in this document (tags omitted).
UniProt P14842, whole entry: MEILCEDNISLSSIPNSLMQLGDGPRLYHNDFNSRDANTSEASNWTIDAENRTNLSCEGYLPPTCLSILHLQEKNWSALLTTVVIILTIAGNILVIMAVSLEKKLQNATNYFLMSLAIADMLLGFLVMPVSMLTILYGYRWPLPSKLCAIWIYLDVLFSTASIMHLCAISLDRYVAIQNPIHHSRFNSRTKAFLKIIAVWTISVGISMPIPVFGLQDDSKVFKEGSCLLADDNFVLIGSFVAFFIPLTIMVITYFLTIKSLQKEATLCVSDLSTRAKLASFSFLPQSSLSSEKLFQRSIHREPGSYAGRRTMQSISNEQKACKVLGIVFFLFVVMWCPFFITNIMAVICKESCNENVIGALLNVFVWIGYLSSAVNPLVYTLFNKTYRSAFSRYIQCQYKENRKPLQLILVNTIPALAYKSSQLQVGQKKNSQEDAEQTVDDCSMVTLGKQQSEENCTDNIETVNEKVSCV

Target: 5-HT2 receptor (Rattus norvegicus, UniProt P14842)
Experiment: 5-HT2 functional assay: phosphoinositide (PI) turnover in A7r5 rat vascular smooth muscle cells
Assay type: cell-based
Parameters: A7r5 rat vascular smooth muscle cells; endogenous in cells; host or cells: A7r5 rat vascular smooth muscle cells
Settings: compared to 5-HT (set at 100%)
Protocol: The relative agonist activity of serotonergic compounds at the 5-HT2 receptor can be determined in vitro using the ability of the compounds to stimulate the production of [^3H]inositol phosphates in [^3H]myo-inositol-labeled A7r5 rat vascular smooth muscle cells by their ability to activate the enzyme phospholipase C. These cells are grown in culture plates, maintained in a humidified atmosphere of 5% CO2 and 95% air and fed semi-weekly with Dulbecco's modified Eagle medium (DMEM) containing 4.5 g/l glucose and supplemented with 2 mM glutamine, 10 μg/ml gentamicin, and 10% fetal bovine serum. For the purpose of conducting the phosphoinositide (PI) turnover experiments, the A7r5 cells are cultured in 24-well plates as previously described (Griffin et al. 1998). Confluent cells are exposed for 24–30 hrs to 1.5 μCi [^3H]-myo-inositol (18.3 Ci/mmol) in 0.5 ml of serum-free medium. […] The eluate (4 ml) is collected, mixed with 15 ml scintillation fluid, and the total [^3H]-IPs determined by scintillation counting on a beta-counter. Concentration-response data are analyzed by the sigmoidal fit function of the Origin Scientific Graphics software (Microcal Software, Northampton, Mass.) to determine agonist potency (EC50 value) and efficacy (Emax). […]

`COc1cc(C[C@@H](C)N)c(OC)cc1I` [(R)-DOI, reference compound] was tested, and the “Efficacy (Emax, %) (5-HT2 functional)” value was 82%.
